Laboratory results published in article PMC4536914 (Chembiochem : a European journal of chemical biology, 2012).

Sequences of proteins named here, by UniProt entry; tags and fusion partners are left off. Residues count along the entry.
UniProt P53350, 326-603 limits assumed: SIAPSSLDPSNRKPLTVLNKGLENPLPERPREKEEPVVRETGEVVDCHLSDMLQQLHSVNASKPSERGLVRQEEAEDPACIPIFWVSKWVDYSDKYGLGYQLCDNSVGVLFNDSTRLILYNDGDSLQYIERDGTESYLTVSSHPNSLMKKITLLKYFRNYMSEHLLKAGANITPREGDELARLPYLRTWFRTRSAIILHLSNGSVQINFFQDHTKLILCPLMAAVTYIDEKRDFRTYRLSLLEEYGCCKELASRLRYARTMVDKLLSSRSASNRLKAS

Target: Plk1 PBD (Homo sapiens, UniProt P53350)
Assay: Plk1 PBD fluorescence polarization competition binding assay
Settings: 2.56 µM

PLHSpT [compound 1]
inhibition at the highest concentration tested: 40 ± 0.2%
